{
  "source": "patent US7745152B2",
  "about": "“Method for determining genotoxicity” (priority 2004, dated 2010)",
  "key": {"[1]": {"test_system": "C2C12 cells", "test": "Phenotypic genotoxicity assay: C2C12 differentiation into myotubes", "conditions": "block of C2C12 differentiation into myotubes; 24 h exposure, read at 48 and 72 h in differentiation media"}, "[2]": {"test_system": "C2C12 cells", "test": "Genomic assay: gene expression analysis (Affymetrix Murine Genome MOE430) in C2C12 cells induced to differentiate", "conditions": "C2C12, 24 h drug (μg/ml: BLEO 0.5, CIS 0.6, ETOP 0.5, MMS 0.008, MNNG 4, VINC 0.6), then 6, 18 or 24 h differentiation, vs DMSO"}},
  "data": [
    {"substance": "1-methyl-3-nitro-nitroso-guanidine", "values": [
      {"measurement": "Lowest effective dose", "setting": "[1]", "value": 0.1, "unit": "µg/mL"},
      {"measurement": "Fold change in expression: 0610013D04 Rik, RIKEN cDNA", "setting": "[2]", "value": 2.50, "unit": "fold"},
      {"measurement": "Fold change in expression: 1600013K19 Rik, RIKEN cDNA", "setting": "[2]", "value": 0.62, "unit": "fold"},
      {"measurement": "Fold change in expression: 2610005B21 Rik, RIKEN cDNA", "setting": "[2]", "value": 0.47, "unit": "fold"},
      {"measurement": "Fold change in expression: 2610019I03 RIK, RIKEN cDNA", "setting": "[2]", "value": "065", "unit": "fold"},
      {"measurement": "Fold change in expression: 2610509G12 Rik, RIKEN cDNA", "setting": "[2]", "value": 0.59, "unit": "fold"},
      {"measurement": "Fold change in expression: 2810417H13 Rik, RIKEN cDNA", "setting": "[2]", "value": 0.60, "unit": "fold"},
      {"measurement": "Fold change in expression: 4833427G06 Rik, RIKEN cDNA", "setting": "[2]", "value": 4.00, "unit": "fold"},
      {"measurement": "Fold change in expression: 6530401L14 Rik, RIKEN cDNA", "setting": "[2]", "value": 0.56, "unit": "fold"},
      {"measurement": "Fold change in expression: 9030617O03 Rik, RIKEN cDNA", "setting": "[2]", "value": 2.20, "unit": "fold"},
      {"measurement": "Fold change in expression: Anxa8, Annexin A8", "setting": "[2]", "value": 2.80, "unit": "fold"},
      {"measurement": "Fold change in expression: Asflb, ASF1 anti-silencing function 1 homolog B (Saccharomyces)", "setting": "[2]", "value": 0.57, "unit": "fold"},
      {"measurement": "Fold change in expression: Birc5, Baculoviral IAP repeat-containing 5", "setting": "[2]", "value": 0.63, "unit": "fold"},
      {"measurement": "Fold change in expression: Brca1, Breast cancer 1", "setting": "[2]", "value": 0.53, "unit": "fold"},
      {"measurement": "Fold change in expression: Calmbp1, Calmodulin binding protein 1", "setting": "[2]", "value": 0.41, "unit": "fold"},
      {"measurement": "Fold change in expression: Capn6, Calpain 6", "setting": "[2]", "value": 0.60, "unit": "fold"},
      {"measurement": "Fold change in expression: Ccna2, Cyclin A2", "setting": "[2]", "value": 0.61, "unit": "fold"},
      {"measurement": "Fold change in expression: Ccng1, Cyclin G1", "setting": "[2]", "value": 3.10, "unit": "fold"},
      {"measurement": "Fold change in expression: Cilp, Cartilage intermediate layer pro", "setting": "[2]", "value": 0.49, "unit": "fold"},
      {"measurement": "Fold change in expression: Cks2, CDC28 protein kinase regulatory subunit 2", "setting": "[2]", "value": 0.57, "unit": "fold"},
      {"measurement": "Fold change in expression: D4Ertd421e, DNA segment, Chr 4, ERATO Doi 421, expressed", "setting": "[2]", "value": 0.40, "unit": "fold"},
      {"measurement": "Fold change in expression: Dda3-pending, Differential display and activated by p53", "setting": "[2]", "value": 3.80, "unit": "fold"},
      {"measurement": "Fold change in expression: E2f7, E2F transcription factor 7", "setting": "[2]", "value": 0.53, "unit": "fold"},
      {"measurement": "Fold change in expression: E030024M05 Rik, RIKEN cDNA", "setting": "[2]", "value": 2.00, "unit": "fold"},
      {"measurement": "Fold change in expression: E130315B21 Rik, RIKEN cDNA", "setting": "[2]", "value": 0.60, "unit": "fold"},
      {"measurement": "Fold change in expression: Ephx1, Epoxide hydrolase 1 (microsomal xenobiotic hydrolase)", "setting": "[2]", "value": 2.10, "unit": "fold"},
      {"measurement": "Fold change in expression: Fbxo5, f-box only protein 31", "setting": "[2]", "value": 0.51, "unit": "fold"},
      {"measurement": "Fold change in expression: Foxm1, Forkhead box M1", "setting": "[2]", "value": 0.58, "unit": "fold"},
      {"measurement": "Fold change in expression: Gmnn, Geminin", "setting": "[2]", "value": 0.58, "unit": "fold"},
      {"measurement": "Fold change in expression: Gnpi, Glucosamine-6-phosphate deaminase", "setting": "[2]", "value": 1.90, "unit": "fold"},
      {"measurement": "Fold change in expression: Hgf, Hepatocyte growth factor (scatter factor)", "setting": "[2]", "value": 3.20, "unit": "fold"},
      {"measurement": "Fold change in expression: Hmgb2, High mobility group box 2", "setting": "[2]", "value": 0.45, "unit": "fold"},
      {"measurement": "Fold change in expression: Hmgb3, High mobility group box 3", "setting": "[2]", "value": 0.46, "unit": "fold"},
      {"measurement": "Fold change in expression: Hmmr, Hyaluronan mediated motility receptor (RHAMM)", "setting": "[2]", "value": 0.47, "unit": "fold"},
      {"measurement": "Fold change in expression: Kifl1, Kinesin 11", "setting": "[2]", "value": 0.53, "unit": "fold"},
      {"measurement": "Fold change in expression: Lek1, Leucine, glutamic acid, lysine family 1 protein", "setting": "[2]", "value": 0.36, "unit": "fold"},
      {"measurement": "Fold change in expression: Ly6e, Lymphocyte antigen 6 complex, locus E", "setting": "[2]", "value": 2.30, "unit": "fold"},
      {"measurement": "Fold change in expression: M-phosph1, M-phase phosphoprotein", "setting": "[2]", "value": 0.38, "unit": "fold"},
      {"measurement": "Fold change in expression: MGC:32192, Mus musculus cDNA clone MGC: 32192 IMAGE: 5006129", "setting": "[2]", "value": 0.58, "unit": "fold"},
      {"measurement": "Fold change in expression: Mad2l1, MAD2 (mitotic arrest deficient, homolog)-like 1 (yeast)", "setting": "[2]", "value": 0.55, "unit": "fold"},
      {"measurement": "Fold change in expression: Mad3, Max dimerization protein 3", "setting": "[2]", "value": 0.56, "unit": "fold"},
      {"measurement": "Fold change in expression: Mcm3, Minichromosome maintenance deficient 3 (Saccharomyces)", "setting": "[2]", "value": 0.57, "unit": "fold"},
      {"measurement": "Fold change in expression: Mcmd4, Minichromosome maintenance deficient 4 homolog", "setting": "[2]", "value": 0.57, "unit": "fold"},
      {"measurement": "Fold change in expression: Mki67, Antigen identified by MAb Ki67", "setting": "[2]", "value": 0.34, "unit": "fold"},
      {"measurement": "Fold change in expression: Mmhead, Mus musculus 15 day embryo head cDNA clone", "setting": "[2]", "value": 2.50, "unit": "fold"},
      {"measurement": "Fold change in expression: Nos3, Nitric oxide synthase 3, endothelial cell", "setting": "[2]", "value": 2.10, "unit": "fold"},
      {"measurement": "Fold change in expression: Np95, Nuclear protein 95", "setting": "[2]", "value": 0.51, "unit": "fold"},
      {"measurement": "Fold change in expression: Nusap1, Nucleolar and spindle associated protein 1", "setting": "[2]", "value": 0.55, "unit": "fold"},
      {"measurement": "Fold change in expression: Osbp16, Oxysterol binding protein-like 6", "setting": "[2]", "value": 2.10, "unit": "fold"},
      {"measurement": "Fold change in expression: Pbk, PDZ binding kinase", "setting": "[2]", "value": 0.60, "unit": "fold"},
      {"measurement": "Fold change in expression: Pcna, Proliferating cell nuclear antigen", "setting": "[2]", "value": 0.64, "unit": "fold"},
      {"measurement": "Fold change in expression: Phex, Phosphate regulating neutral endopeptidase (X chromosome)", "setting": "[2]", "value": 2.20, "unit": "fold"},
      {"measurement": "Fold change in expression: Plf, Proliferin", "setting": "[2]", "value": 2.00, "unit": "fold"},
      {"measurement": "Fold change in expression: Pola1, DNA polymerase alpha 1, 180 kDa", "setting": "[2]", "value": 0.36, "unit": "fold"},
      {"measurement": "Fold change in expression: Prc1, Protein regulator of cytokinesis 1", "setting": "[2]", "value": 0.59, "unit": "fold"},
      {"measurement": "Fold change in expression: Prelp, Proline arginine-rich end leucine-rich repeat", "setting": "[2]", "value": 0.11, "unit": "fold"},
      {"measurement": "Fold change in expression: Prim1, DNA primase, p49 subunit", "setting": "[2]", "value": 0.51, "unit": "fold"},
      {"measurement": "Fold change in expression: Rad51ap1, RAD51-associated protein 1", "setting": "[2]", "value": 0.52, "unit": "fold"},
      {"measurement": "Fold change in expression: Rbl1, Retinoblastoma-like 1 (p107)", "setting": "[2]", "value": 0.64, "unit": "fold"},
      {"measurement": "Fold change in expression: Serpine1, Ser (or Cys) proteinase inhibitor, clade E, member 1", "setting": "[2]", "value": 0.62, "unit": "fold"},
      {"measurement": "Fold change in expression: Sesn2, Sestrin 2", "setting": "[2]", "value": 5.80, "unit": "fold"},
      {"measurement": "Fold change in expression: Shcbp1, Shc SH2-domain binding protein 1", "setting": "[2]", "value": 0.44, "unit": "fold"},
      {"measurement": "Fold change in expression: Slc35a5, Solute carrier family 35, member A5", "setting": "[2]", "value": 2.50, "unit": "fold"},
      {"measurement": "Fold change in expression: Smc2l1, SMC2 structural maintenance of chromosomes 2-like 1", "setting": "[2]", "value": 0.54, "unit": "fold"},
      {"measurement": "Fold change in expression: Stk18, Serine/threonine kinase 18", "setting": "[2]", "value": 0.53, "unit": "fold"},
      {"measurement": "Fold change in expression: Tacc3, Transforming, acidic coiled-coil containing protein 3", "setting": "[2]", "value": 0.59, "unit": "fold"},
      {"measurement": "Fold change in expression: Tagln, Transgelin (smooth muscle 22 protein)", "setting": "[2]", "value": 0.55, "unit": "fold"},
      {"measurement": "Fold change in expression: Tk1, Thymidine kinase 1", "setting": "[2]", "value": 0.46, "unit": "fold"},
      {"measurement": "Fold change in expression: Top2a, Topoisomerase (DNA) II alpha", "setting": "[2]", "value": 0.47, "unit": "fold"},
      {"measurement": "Fold change in expression: Trp53inp1, Transformation related protein, 53 inducible nuclear protein 1", "setting": "[2]", "value": 3.00, "unit": "fold"},
      {"measurement": "Fold change in expression: Usp30, Ubiquitin specific protease 30", "setting": "[2]", "value": 2.60, "unit": "fold"},
      {"measurement": "Fold change in expression: Wig1, Wild-type p53-induced gene 1", "setting": "[2]", "value": 1.90, "unit": "fold"},
      {"measurement": "Fold change in expression: Slc19a2, Solute carrier family 19 (thiamine transporter), member 2", "setting": "[2]; first Slc19a2 entry (r16)", "value": 3.30, "unit": "fold"},
      {"measurement": "Fold change in expression: Slc19a2, Solute carrier family 19 (thiamine transporter), member 2", "setting": "[2]; second Slc19a2 entry (r72)", "value": 2.20, "unit": "fold"}
    ]}
  ]
}
